For assay [1], the system named is NRAS^Q61K mouse melanoma primary cultures. In words: BrdU incorporation in primary cultures of Tyr-NRAS^Q61K; Ink4a−/− mouse melanomas. The assay is classed as cell-based. The following applies: 48 h. The method, then:
(§1) WM-115, SK-MEL-2 and COS7 cell lines (ATCC) were grown according to the specifications of the provider. The primary Me-3 melanoma (Stecca, B. et al. Melanocyte proliferation and melanoma growth, recurrence and metastasis require sustained SONIC HEDGEHOG-GLI signaling. Submitted. (2006)) was grown in E-MEM with 10% FBS (Hyclone), 1 mM sodium pyruvate (GIBCO) and 1 ng/ml EGF (GIBCO). Proliferating human melanocytes from foreskin (Promocell) were grown in M2 media (Promocell). Melanomas from ±6 month-old Tyr→NRAS^Q61K; Ink4a^−/− mice on a light coat color Dct^−/− background^13 were collected from the skin and lymph nodes. Tumors were dissociated and grown in E-MEM with 10% FBS, 1 mM sodium pyruvate (GIBCO) and 1 ng/ml EGF (GIBCO). Mouse embryonic fibroblasts (MEFs) were prepared from E14.5 Swiss Webster mouse embryos and grown in DMEM with 10% FBS.
(§2) Forskolin (FK) and 1,9-dideoxyforskolin (ddFK; Sigma) were used at 50 μM. MEK-1 (U0126; Promega), and AKT (SH6; Alexis corporation) inhibitors were used at 1 and 40 μM, respectively, dissolved in DMSO. U0126 and SH6 were used for 1 h, 48 h post-transfection. Leptomycin B (LMB; Sigma) was used at 5 nM for 6 h, 48 h post-transfection. BrdU (Sigma) was pulsed at 4 μg/ml for 2 h before fixation followed by immunodetection with anti-BrdU antibodies (BD Biosciences). The number of viable cells was assessed by Trypan blue exclusion (Promega). […]

Assay [2] concerns melanoma primary cultures and cell lines. The following applies: 48 h cyclopamine treatment; fraction of cultures tested. The method, then: (§3) Commercial N-SHH (R&D Systems) was used at 100 nM. 5E1 anti-SHH blocking antibody (Hybridoma Bank, University of Iowa) was used at 10 μg/ml. Forskolin (FK) and 1,9-dideoxyforskolin (ddFK; Sigma) were used at 50 μM. […] MEK-1 (U0126; Promega), EGFR (AG1478; Biosource) and AKT (SH6; Alexis corporation) inhibitors were used at 1, 10, and 40 μM, respectively, dissolved in DMSO. Drug treatments were for 48 h in 2.5% serum. BrdU (Sigma) was pulsed at 4 μg/ml for 2 h before fixation followed by immunodetection with anti-BrdU antibodies (BD Biosciences). The number of viable cells was assessed by Trypan blue exclusion (Promega).

Assay [3] deals with Proliferating melanocytes from human foreskin. In words: BrdU incorporation in proliferating melanocytes. The assay is classed as cell-based. The following applies: cyclopamine over tomatidine. How it is done:
Human foreskin melanocytes (Promocell) were grown in serum-free M2 medium (Promocell). WM-115, SK-MEL-2, SK-MEL-5, MeWo and COS7 cell lines (ATCC) were grown as specified. Tumors were chopped, incubated in E-MEM (Sigma) containing collagenase A (300 U/ml, Worthington) and hyaluronidase (100 U/ml, Sigma), mechanically dissociated and plated in E-MEM with 10% FBS, 1 mM sodium pyruvate (GIBCO) and 1 ng/ml EGF (GIBCO). […] All melanoma samples and BCC were obtained following approved protocols.
as §3
On the technique in general: Dividing cells build labelled thymidine or BrdU into new DNA.

Assay [4] has as its system mouse embryonic fibroblasts (MEF). The following applies: control. The method, then: as §1, §2
Assay [5] relates to HRAS (V12)-transfected WM-115, SK-MEL-2 and SK-MEL-5. Kind of assay: oncogenic HRAS-transfection enhanced BrdU incorporation, treatment with inhibitors. The class given is cell-based, human. The following applies: 48 h treatment. How it is done: as §3
Assay [6] concerns MeWo/LacZ lung metastases. The following applies: IP 10 mg/kg/twice a day for 45 days, started 2 weeks after i.v. cells.

As for `CC1=C2C[C@H]3[C@@H](CC=C4C[C@@H](O)CC[C@@]43C)[C@@H]2CC[C@]12O[C@@H]1C[C@H](C)CN[C@H]1[C@H]2C` [cyclopamine], the “proliferation of primary cultures” value in assay [1] (5 μM) is “one from each mouse also responded”. Further, the “proliferation of all 12 primary cultures” value in assay [1] (10 μM) is “inhibited”. The “cultures with increase in activated Caspase-3 immunoreactivity” value in assay [2] is “⅗”. Moreover, in assay [3], the decrease in proliferation is on record as 2 fold. In assay [4], the “proliferation of mouse embryonic fibroblasts” value is on record as “did not affect”. The “effect on oncogenic RAS-enhanced proliferation” value in assay [5] is “reversed”. In assay [6], the “cyclopamine-treated mice without a single blue cell in their lungs” value is 6/7.

The record behind these values is US7709454B2, “Methods and compositions for inhibiting tumorigenesis” (New York University, priority 1997, dated 2010).
